Assay: clinical
Conditions: male, human, plasma, 2 mg
[1] = other: colonic bolus into the transverse colon
[2] = other: colonic infusion into the transverse colon

With `Cc1nc2n(c(=O)c1CCN1CCC(c3noc4cc(F)ccc34)CC1)CCCC2` [Risperidone] the AUC(0-inf) [1] was 30.6 ng·h/mL, the AUC(0-t) [1] was 29.7 ng·h/mL and the Cmax [1] was 7.31 ng/mL. The Tmax [1] was 0.77 h, the bioavailability [1] was 63.4% and the half-life [1] was 3.32 h. For the same compound, the bioavailability (other: colonic bolus into the transverse colon, Risperidone Relative Bioavailability, Treatment B: colonic bolus 2 mg over 10 minutes, relative to oral dosing) was 63%, the AUC(0-inf) [2] was 56.1 ng·h/mL and the AUC(0-t) [2] was 53.1 ng·h/mL. The Cmax [2] was 4.93 ng/mL, the Tmax [2] was 6.18 h and the half-life [2] was 4.11 h. For the same compound, the bioavailability (other: colonic infusion into the transverse colon, Risperidone Relative Bioavailability, Treatment A: colonic infusion 2 mg over 6 hours, relative to oral dosing) was 75%, the AUC(0-inf) (po) was 59.7 ng·h/mL and the AUC(0-t) (po) was 58.7 ng·h/mL. For the same compound, the Cmax (po) was 16.2 ng/mL, the Tmax (po) was 0.69 h and the half-life (po) was 3.31 h.

Reference: US20070026067A1, “Liquid formulations for controlled delivery of benzisoxazole derivatives” (priority 2005, published 2007)
